Results published in paper PMC10899660, “Global fungal-host interactome mapping identifies host targets of candidalysin” (Nature Communications, 2024).
Where “and” joins values, the source holds several entries; their conditions need not be identical. Equal values may be shown once. Read-outs that look alike come from different tables or passages of the source.

Key:
Cyclin H (CCNH) = molecular target: T1, Cyclin H (CCNH) (Homo sapiens, UniProt P51946); test: Surface plasmon resonance (SPR) on BIAcore; format: binding
T1 construct: purchased Sino Biological Inc. Lot; ME12NO2769 (a lot number; catalogue number not given); host or cells: E. coli
T1 sequence (P51946 1-323): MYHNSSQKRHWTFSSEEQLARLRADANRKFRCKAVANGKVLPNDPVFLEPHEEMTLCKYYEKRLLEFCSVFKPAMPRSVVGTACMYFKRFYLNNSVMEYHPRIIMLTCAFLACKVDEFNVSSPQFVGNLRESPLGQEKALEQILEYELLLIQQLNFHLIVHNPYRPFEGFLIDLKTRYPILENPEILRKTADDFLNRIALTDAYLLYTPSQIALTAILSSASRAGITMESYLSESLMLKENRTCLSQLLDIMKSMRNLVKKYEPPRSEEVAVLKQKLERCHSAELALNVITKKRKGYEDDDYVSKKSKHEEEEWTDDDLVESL
Description: Recombinant Cyclin H (CCNH) protein with a C-HIS tag (Lot. ME12NO2769, 38.46 kDa) was obtained from Sino Biological Inc. and stored at −80 °C. In short, the cyclin H (Homo sapiens) gene was amplified by PCR and cloned into an expression vector which was transformed into E. coli followed by the selection and establishment of high expression transformants. The protein was purified using immobilized metal ion affinity chromatography and dissolved in PBS (pH 7.4). SPR measurement was performed with Biacore T200 instrument (GE), at 25 °C, with a flow rate of 30 μL/min. CM5 sensor chips, HBS-EP running buffer and the Amine Coupling Kit, including 1-ethyl-3(3-dimethylaminopropyl) carbodiimide hydrochloride (EDC), N-hydroxysuccinimide (NHS), 1.0 M ethanolamine-HCl (pH 8.5) were purchased from GE. The binding properties of candidalysin to CCNH were evaluated upon immobilization of CCNH onto CM5 chip surface in flow cell 2 (FC-2) using Biacore Amine Coupling Kit according to the manufacturer’s instructions. CCNH was diluted to 20 μg/ml in acetate buffer (pH 4.0) in advance and immobilized on the CM5 Chip following the EDC/NHS protocol. The reached immobilized target level was 1200 RU. The reference flow cell (FC-1) was blank-immobilized following the templated procedure. BIAcore measurements were performed starting from a 1:1 serial dilution of candidalysin following the templated multicycle analysis (association time 120 s, dissociation time 150 s, flow 30 μL/min). The SPR measurement for Ece1-II, Ece1-IV, Ece1-V and human cathelicidin (Solarbio, CLP0454) to CCNH were performed with Biacore 8 K instrument (GE) by PBST running buffer, and the other conditions were the same.

FaDu cells [1] = test: LDH cytotoxicity assay, FaDu cells; format: cell-based
Description: Cells were deposited into 96-well plates and incubated at 37 °C with 5% CO2. Prior to the cell damage assay, cells were starved in serum-free medium overnight. Cytotoxicity LDH Assay Kit-WST (Dojindo, #CK12) was applied to determine the lactate dehydrogenase (LDH) activity released from cells that were damaged by candidalysin for 2 h or 4 h according to the manufacturer’s instructions.

FaDu cells [2] = test: Calcein/PI viability/cytotoxicity assay, FaDu cells; format: cell-based; conditions: 10 μM, 4 h
Description: CHO-K1 cells were deposited into 96-well plates and incubated at 37 °C with 5% CO2. Before the viability assay, cells were starved in serum-free F12K medium overnight. Calcein/PI Cell Viability/Cytotoxicity Assay Kit (DOJINDO, C542) was applied to determine the cell viability that were treated by candidalysin for 4 h.

CHO-K1 cells = test: Cell-cycle analysis by flow cytometry (propidium iodide), CHO-K1 cells; format: cell-based; conditions: 4 h
Description: For cell-cycle analysis, cells were collected and fixed overnight in 70% ethanol at −20 °C, washed and resuspended in 100 μg/mL RNase A Reagent for 30 min at 37 °C, then treated with 15 μg/mL propidium iodide (Elabscience, E-CK-A351) at 4 °C for 30 min in dark condition. After staining, cell-cycle analyses were carried out by flow cytometry. Data were analyzed with the FlowJo software (Tree Star). At least 1 × 10^4 cells were acquired per sample, and every experiment was repeated at least three times.

FaDu cells [3] = test: Western blot of CCNH and γ-H2AX, FaDu cells; format: cell-based
Description: Cells were lysed with cell lysis buffer (Beyotime, #P0013) on ice for 30 min. The supernatant of cell lysate was then collected in a table-top refrigerated centrifuge at 4 °C and 14,000 × g for 10 min. Protein concentration was determined by Pierce™ BCA Protein Assay Kit (Thermo Scientific™, #23227). Antibodies against the following proteins were used for Western blotting analysis: CCNH antibody (CST,Rabbit Source, Cat#2927, 1:1000 dilution), gama-H2AX antibody (CST, Rabbit Source, Cat#97185, 1:1000 dilution), GAPDH (D16H11) XP® Rabbit mAb (CST, Rabbit Source, Cat#5174 S, 1:1000 dilution), Anti-CDK2 (phospho T160) + CDK1 (phospho T161) antibody (Abcam, Rabbit Source, Cat#EPR17621, 1:1000 dilution), Anti-rabbit IgG, HRP-linked Antibody (CST, Goat Source, Cat#7074, 1:5000 dilution), […] Tag (D6W5B) Rabbit mAb (CST, Rabbit Source, Cat#14793, 1:1000 dilution), GFP (4B10) Mouse mAb (CST, Mouse Source, Cat #2955, 1:1000 dilution), Anti-mouse IgG,HRP-linked antibody (CST, Goat Source, Cat#7076, 1:5000 dilution). Membranes were treated with SuperSignal™ West Pico PLUS Chemiluminescent Substrate (Thermo Scientific™, #34577) prior to visualization in the Chemiluminescence Imaging Analysis System (BG-gdsAUTO720, Baygene). GAPDH was used as the loading control.

BALB/c mice = test: Buried food-seeking test (latency to retrieve food); format: in vivo
Description: Buried food-seeking test was performed on the Day 0 before infection and on the Day 5. Foods were buried completely by litter in the upper left corner of the cage box (16 × 30 cm), and the mice began the exploration from the diagonal position of the cage box. The total time spent for locating and retrieving foods (latency to retrieve food) by each mouse was recorded (more than 10 min was recorded as a failed search). And then the video of each mouse retrieving the food was analyzed using VisuTrack Animal behavior analysis system (XinRuan Co. Ltd, Shanghai) for plotting the track and heatmap.

Structure (SMILES): CC[C@H](C)[C@H](NC(=O)CNC(=O)[C@H](CCSC)NC(=O)[C@@H](NC(=O)[C@@H](NC(=O)CNC(=O)[C@@H](NC(=O)[C@@H](NC(=O)[C@@H](N)CO)[C@@H](C)CC)[C@@H](C)CC)[C@@H](C)CC)[C@@H](C)CC)C(=O)N[C@@H](CC(C)C)C(=O)NCC(=O)N[C@@H](CC(N)=O)C(=O)N[C@H](C(=O)N1CCC[C@H]1C(=O)N[C@@H](CCC(N)=O)C(=O)N[C@H](C(=O)N[C@H](C(=O)N[C@@H](CCC(N)=O)C(=O)N[C@H](C(=O)N[C@H](C(=O)N[C@@H](CCSC)C(=O)N[C@@H](CO)C(=O)N[C@H](C(=O)N[C@H](C(=O)N[C@@H](CCCCN)C(=O)N[C@@H](C)C(=O)N[C@@H](Cc1ccccc1)C(=O)N[C@@H](CCCCN)C(=O)NCC(=O)N[C@@H](CC(N)=O)C(=O)N[C@@H](CCCCN)C(=O)O)C(C)C)[C@@H](C)CC)[C@@H](C)CC)[C@@H](C)CC)[C@@H](C)CC)C(C)C)[C@@H](C)CC [Ece1-III]
- binding to CCNH by SPR, in words (Cyclin H (CCNH); BIAcore, compared to Amp): strongest binding
- (-) lg (KD fold change) (Cyclin H (CCNH); SPR, KD relative to CCNH-Amp): 3.561
- Fold Change (KD) (Cyclin H (CCNH); SPR, KD relative to CCNH-Amp, listed as Clys): 0.0002748 and 2.75E-04
- kon (Cyclin H (CCNH); SPR, binding to CCNH, association rate, read-out: Ka): 99200 M⁻¹ s⁻¹
- Kd (Cyclin H (CCNH); SPR, binding to CCNH, dissociation rate): 0.00171 s⁻¹
- Kd (Cyclin H (CCNH); SPR, binding to CCNH, column pK, row KD (M), read-out: pK of KD (converted)): 1.72e-08 M
- pK of Kd (/s) (Cyclin H (CCNH); SPR, binding to CCNH, column pK, row Kd (/s)): 2.768
- cell damage and cytokine secretion (FaDu cells [1]): induced both cell damage and cytokine secretion
- LDH release (FaDu cells [1]; 5 to 80 µM): significantly increased
- toxicity (FaDu cells [2]): non-toxic
- cell cycle (CHO-K1 cells; 10 μM): effectively blocked cell cycle in the G2/M phase
- cell cycle (CHO-K1 cells; 20 μM): blocked cells in the S phase
- γ-H2AX expression (FaDu cells [3]): significantly elevated expression
- γ-H2AX expression after short-term exposure (FaDu cells [3]; 10 µM, 4 h): gradually restored to control level
- γ-H2AX expression during recovery after long-term exposure (FaDu cells [3]; 10 µM, 24 h): sustained higher expression of γ-H2AX even during the recovery period
- CCNH expression (FaDu cells [3]; 24 h treatment): dose-dependent inhibition of CCNH expression
- Latency to retrieve food (BALB/c mice; Day 0 (Before infection), replicate 1): 220.46 s
- Latency to retrieve food (BALB/c mice; Day 0 (Before infection), replicate 2): 258.4 s
- Latency to retrieve food (BALB/c mice; Day 0 (Before infection), replicate 3): 285.22 s
- Latency to retrieve food (BALB/c mice; Day 0 (Before infection), replicate 4): 511.04 s
- Latency to retrieve food (BALB/c mice; Day 5 (Post infection), replicate 1): 531.34 s
- Latency to retrieve food (BALB/c mice; Day 5 (Post infection), replicate 2): 599.98 s
- Latency to retrieve food (BALB/c mice; Day 5 (Post infection), replicate 3): 599.98 s
- Latency to retrieve food (BALB/c mice; Day 5 (Post infection), replicate 4): 595.54 s
- Latency to retrieve food (BALB/c mice; mice, before and after candidalysin or PBS): longer latency to retrieve food
